Measured values published in PMC3422351, “Lipo-Endomorphin-1 Derivatives with Systemic Activity against Neuropathic Pain without Producing Constipation” (PLoS ONE, 2012).

Assays:
CCI-rats = experiment: Assessment of antinociceptive tolerance in CCI-rats; format: in vivo, rat; details: 2 µmol/kg i.v. twice-daily, 5 consecutive doses
Description: At 14 days after CCI surgery, rats (350–400 g) were randomly assigned to one of four treatment groups and administered twice-daily i.v. bolus doses of one test item or vehicle for 5 consecutive doses. Group 1 CCI-rats received compound 3 at 1.6 µmol/kg for all 5 doses whereas group 2 CCI-rats (negative control) received compound 3 at 1.6 µmol/kg followed by vehicle for doses 2–4 with the 5th dose comprising compound 3 at 1.6 µmol/kg. Groups 3 and 4 CCI-rats received 5 consecutive doses of vehicle or morphine (2 µmol/kg), respectively. Paw withdrawal thresholds were measured immediately pre-dose and at the following post-dosing times, viz 0.25, 0.5, 0.75, 1, 1.25, 1.5, 2, and 3 h for doses 1 and 5.

opioid receptors = experiment: Naloxone-sensitivity of antinociception/anti-allodynia in CCI-rats; format: in vivo, rat; details: 2 µmol/kg i.v., naloxone hydrochloride 10 mg/kg s.c.

CN1CC[C@]23c4c5ccc(O)c4O[C@H]2[C@@H](O)C=C[C@H]3[C@H]1C5 [morphine]
potency after the 5th dose relative to the 1st dose (CCI-rats): 24% | anti-allodynic effect after naloxone hydrochloride pre-treatment (opioid receptors): abolished
